Assay results published in publication PMC4600463 (European journal of medicinal chemistry, 2015).

System: Nrf2 target genes HMOX1 and NQO1 in MLE12 (mouse lung alveolar epithelial cell line) cells
Conditions: 10 μM, 6 h, MLE-12 cells, Western blot

## CCOC(=O)CN(c1ccc(NS(=O)(=O)c2ccc(OC)cc2)c2ccccc12)S(=O)(=O)c1ccc(OC)cc1
  Induction of HMOX1 (in words): potently induced
  Induction of Nrf2 target genes HMOX1 and NQO1 (in words): levels similar to that of the well-known electrophilic activator sulforaphane
  Stabilization of Nrf2 protein levels (in words): stabilized Nrf2 levels
